miR-21 reporter: miR-21 reporter, rising signal | AID 2288 | HeLa miR-21 FLuc reporter, luciferase, 48 h | 340,000 tested, under 10 active | Potency, µM (doses to about 38.3 µM), for inactives: at the top dose reporter change, positive = more light; active = well fitted rising curve with a large enough effect; inconclusive = small, poorly fitted or top-dose-only effect; inactive = no such curve, though single readings can be large or run the other way;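 note: % of control where 0% means no effect; miR-21 action dims this reporter so a rising signal means less miR-21 action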
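HeLa miR-21-FLuc reporter line, endogenous miR-21; 2000 cells/well in DMEM/10% FBS; compound titration up to ~40uM final, 48 h, 37 degree Celsius; luciferase detection reagent, 15 min lysis, CCD luminescence.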
TrxR1 substrate: substrates of rat thioredoxin reductase 1; Potency, µM (top dose mostly 114 µM), without a hit: at the highest dose activity change, negative = substrate turnover; purified TrxR1 substrate turnover, NADPH consumption readout; hit rate 0.01% among 390,000; further: potency means the concentration at half of the fitted maximal effect; on the % scale 0 is the no-effect control and ±100 the full control effect; nearly all actives have a fitted effect of over 50% in size
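Rat TrxR1, dispensed at 90 nM, was prereduced with 400 uM NADPH (final) for 5 min at ~22 deg C, then incubated with compound 15 min before 400 uM selenite. A first-read NADPH fluorescence drop versus no-compound background flagged substrates.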
Apoferritin bind: candidate novel general anesthetic via apoferritin binding | apoferritin/1-aminoanthracene competitive binding, fluorescence | Potency, µM (titrated, usually from 77.5 µM), inactives show at the top dose activity change, negative = displacement, usual class: inhibitors | AID 485281 | P02791 | hit rate 0.074% among 350,000; further: potency means the concentration at half of the fitted maximal effect; on the % scale 0 is the no-effect control and ±100 the full control effect; nearly all actives have a fitted effect of over 20% in size
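10 uM apoferritin + 50% sat. 1-AMA, PBS; cpd 10 min RT; Ex380/Em535 endpoint; normalized to free probe vs complex; 4-param Hill fit; propofol titration as pos. ctrl.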
ClpP mod: qHTS Assay for Activators of ClpP | purified B. subtilis ClpP, FRET peptide cleavage, 20 min | Potency, µM (highest dose often 57.5 µM), for inactives: top-dose activity change, negative = active | hit rate 1.9% among 340,000 | AID 651965, 2013; active means well fitted falling curve with a large enough effect; inconclusive means small, poorly fitted or top-dose-only effect; inactive means no such curve, though single readings can be large or run the other way; further: potency means the concentration at half of the fitted maximal effect; the source files actives as falling curves though it sought activators and does not explain the sign; nearly all actives have a fitted effect of over 65% in size
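FRET quenching reversal measured ClpP activation: 10 microg/mL B. subtilis ClpP at pH 8 with the FRET-FV decapeptide, read at 430 nm after 320 nm excitation. The 20-min minus 0-min signal was scaled between DMSO/no-enzyme wells and ADEP (5.8 microM final).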
rTrxR1 inhibitor: inhibitors of rat thioredoxin reductase 1; recombinant rTrxR1, NADPH fluorescence consumption, selenite substrate; Potency, µM (series often up to 114 µM), for inactives: at the highest dose activity change, negative = inhibition, actives largely listed as inhibitors; AID 588453; hit rate 1% among 390,000; further: potency means the concentration at half of the fitted maximal effect; on the % scale 0 is the no-effect control and ±100 the full control effect; nearly all actives have a fitted effect of over 65% in size
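Rat TrxR1 (90 nM in the dispensed reagent) was pre-reduced with 400 uM NADPH for 5 min at room temperature, then incubated with compound for 15 min. After 400 uM selenite was added, NADPH fluorescence (Ex 340/Em 450 nm) was followed for 8 min.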
The depositor's hits bear a star; ? = inconclusive; / = not tested or not shown; ! = a repeat was not active; [ ] = dose if it differs, or a comment. Hits are enriched below; roughly 2.5% of the tested compounds scored in any of these assays. Unless noted, the call rests on the fitted dose curve; in most records, active means well fitted curve in the direction sought with a large enough effect; inconclusive means small, poorly fitted or top-dose-only effect, or another doubt; inactive means no such curve, though single readings can be large; an effect the other way counts as inactive or inconclusive.

| molecule | rTrxR1 inhibitor | miR-21 reporter | ClpP mod | TrxR1 substrate | Apoferritin bind |
| --- | --- | --- | --- | --- | --- |
| Cc1ccc(-c2nc3ccccc3n2C)o1 | 22µM* | -40% | 16µM* | 40% | ? |
| CCOC(=O)c1cn(CC(=O)Nc2cccc(Cl)c2)nn1 | 5% | 3% | -3% | -2% | 0% |
| CCOC(=O)c1cn(CC(=O)Nc2cccc(Cl)c2C)nn1 | 16% | 12% | 35µM*! | 0% | -3% |
| CC(=O)c1ccc(N2CCN(c3ncnc4c3nc3n4CCCC3)CC2)cc1 | -5% | ? | -1% | -10% | -4% |
| Cc1cccc(N/C(N)=N/c2nc(C)cc(C)n2)c1 | 37% | 9% | 32µM* | 19% | -7% |
| CCOC(=O)COc1ccc2ccccc2c1/C=C/[N+](=O)[O-] | 7.1µM* | ? | -1% | -6% | -10% |
| Cc1ccc(C)c(N(C)C(=O)C2CCN(S(=O)(=O)c3cccc4nsnc34)CC2)c1 | -8% | 24% | 0% | -5% | ? |
| COc1ccc(Cn2c(=O)c3c(nc(NCCO)n3C)n(C)c2=O)cc1 | -14% | -20% | 3.5µM* | -14% | -8% |
| Cc1ccc(CNC(=O)CCc2nc3cccnc3n2Cc2ccccc2)cc1 | 0% | -6% | -2% | -4% | -12% |
| O=C(Cc1ccc(S(=O)(=O)N2CCOCC2)s1)Nc1ccccc1N1CCCC1 | 11µM* | 0% | -13% | -2% | 6% |
| O=C(Cc1ccc(S(=O)(=O)N2CCOCC2)s1)Nc1cc(C(F)(F)F)ccc1N1CCCC1 | -6%[57.1 µM] | / | / | -6%[57.1 µM] | / |
| CCCCNc1ccccc1C(=O)OCC(=O)Nc1ccc(S(N)(=O)=O)cc1 | 22% | -1% | 28µM* | 83% | 445% |
| COc1ccccc1-c1ccc(/C=C2/C=C(CC(C)C)OC2=O)o1 | -28% | -8% | 35µM* | 41% | 0% |
| O=C(O)/C=C/C(=O)N1N=C(c2ccco2)CC1c1ccco1 (stereo not drawn) | 15%[57.1 µM] | -7% | 2% | 15%[57.1 µM] | 3% |
| CN1CCN(CC(=O)N2N=C(c3cccs3)CC2c2ccco2)CC1 (stereo not drawn) | -16% | -14% | -14% | -8% | -10% |
| O=C(CCl)N1N=C(c2cccs2)CC1c1ccco1 (stereo not drawn) | 14µM* | ? | -2% | -10% | -10% |
| O=C(CCl)N1N=C(c2ccco2)CC1c1ccco1 (stereo not drawn) | 2.5µM* | ? | / | 4% | 1% |
| Cc1ccc2c(c1)N(C(=O)N1CCC(C(=O)NCCC3=CCCCC3)CC1)CC(C)O2 (stereo not drawn) | 13% | -38% | 0% | -3% | -17% |
| O=C(CCn1c(=O)c2cccn2c2cccnc21)N1CCN(c2cccc(C(F)(F)F)c2)CC1 | 17% | ? | -5% | 3% | -15% |
| CC(=O)c1c(O)cccc1O | / | / | / | / | 3% |
| O=C(COc1ccc(/C=C\[N+](=O)[O-])cc1)N1CCOCC1 | 14µM* | 8% | 0% | 7% | -2% |
| CC(C)(C)c1ccc(NC(=O)Nc2ccc(OCC(=O)N3CCOCC3)cc2)cc1 | 23%[57.1 µM] | 3% | / | 4%[57.1 µM] | ? |
| O=C(COc1ccc(S(=O)(=O)N2CCOCC2)cc1)N1CCOCC1 | -14% | / | -1% | -14% | / |
| O=C(Nc1ccc(OCC(=O)N2CCOCC2)cc1)Nc1cccc(Cl)c1 | 10%[57.1 µM] | -15% | 11µM* | 7%[57.1 µM] | -9% |
| Cc1ccc(OCCCC(=O)N2CCOCC2)cc1 | 16%[57.1 µM] | -27% | 10µM* | -8%[57.1 µM] | -8% |
| Clc1ccc(-c2nnc(-c3ccco3)nc2N2CCCCC2)cc1 | 6.3µM* | -7% | 2% | -6% | -12% |
| Clc1ccc(-c2nnc(-c3ccc(Br)cc3)c(N3CCSCC3)n2)cc1 | 7% | -6% | 1% | 2% | -16% |
| CCN(CC)CCNc1ncnc2c1[nH]c1ccc(OC)cc12 | / | -2% | / | / | ? |
| C=CCNc1ncnc2c1[nH]c1ccc(C)cc12 | 16% | -16% | 16µM* | 83% | -10% |
| COc1ccc2[nH]c3c(NCc4ccco4)ncnc3c2c1 | -6% | -19% | 16µM*! | 40% | -12% |

An excerpt from above in order of their number in ClpP mod, lowest first:
mol	rTrxR1 inhibitor	miR-21 reporter	ClpP mod	TrxR1 substrate
COc1ccc(Cn2c(=O)c3c(nc(NCCO)n3C)n(C)c2=O)cc1	-14%	-20%	3.5µM*	-14%
Cc1ccc(OCCCC(=O)N2CCOCC2)cc1	16%[57.1 µM]	-27%	10µM*	-8%[57.1 µM]
O=C(Nc1ccc(OCC(=O)N2CCOCC2)cc1)Nc1cccc(Cl)c1	10%[57.1 µM]	-15%	11µM*	7%[57.1 µM]
C=CCNc1ncnc2c1[nH]c1ccc(C)cc12	16%	-16%	16µM*	83%
CCCCNc1ccccc1C(=O)OCC(=O)Nc1ccc(S(N)(=O)=O)cc1	22%	-1%	28µM*	83%
COc1ccccc1-c1ccc(/C=C2/C=C(CC(C)C)OC2=O)o1	-28%	-8%	35µM*	41%

2 entries from above, with each value named.
smiles: O=C(CCl)N1N=C(c2ccco2)CC1c1ccco1 (stereo not drawn)
  rTrxR1 inhibitor: 2.5µM*	miR-21 reporter: ?	ClpP mod: /	TrxR1 substrate: 4%	Apoferritin bind: 1%

smiles: Cc1ccc2c(c1)N(C(=O)N1CCC(C(=O)NCCC3=CCCCC3)CC1)CC(C)O2 (stereo not drawn)
  rTrxR1 inhibitor: 13%	miR-21 reporter: -38%	ClpP mod: 0%	TrxR1 substrate: -3%	Apoferritin bind: -17%

Next results follow:
| molecule | rTrxR1 inhibitor | miR-21 reporter | ClpP mod | TrxR1 substrate | Apoferritin bind |
| --- | --- | --- | --- | --- | --- |
| CCOC(=O)CN1C(=O)C(CC)Oc2ccccc21 (stereo not drawn) | 15% | -3% | 0% | 5% | -8% |
| CCOC(=O)C(C(=O)OCC)C1N=C(N)N=C2Oc3ccccc3N21 (stereo not drawn) | 38% | -29% | 25µM* | 66% | -2% |
| COc1ccc(C2C(C#N)=C(N)Oc3cc(C)n(Cc4ccco4)c(=O)c32)cc1 (stereo not drawn) | 3.2µM* | -2% | -6% | 1% | 6% |
| Cc1ccc(CSCC(=O)Nc2ccc(N3CCOCC3)cc2N2CCOCC2)cc1 | 10% | / | 35µM* | 3% | / |
| Cc1cccc(NC(=O)CSCC(=O)Nc2ccc(N3CCOCC3)cc2N2CCOCC2)c1 | 27% | / | -1% | 0% | / |
| Cc1ccccc1-c1noc(-c2cccnc2N2CCN(c3ccccc3)CC2)n1 | -4% | 15% | -1% | -7% | ? |
| CCN1CCCC1CNC(=O)c1ccc2c(=O)n(CCOC)c(=O)[nH]c2c1 (stereo not drawn) | 9% | 2% | 32µM* | 39% | -7% |
| COCCn1c(=O)[nH]c2cc(C(=O)NCC3CCCO3)ccc2c1=O (stereo not drawn) | 9%[57.1 µM] | 6% | 28µM* | 20%[57.1 µM] | -7% |
| O=C(NCCCN1CCN(c2ccc(F)cc2)CC1)c1cnn(-c2ccc(F)cc2)c1-n1cccc1 | -22% | 20% | -3% | -14% | -1% |
| O=S(=O)(c1ccc(F)cc1)N(Cc1nc(-c2ccc(Cl)cc2)no1)C1CCCCC1 | 21% | 1% | 1% | -1% | -9% |
| Cc1cccc(OCCCn2ccnc2)c1 | 12%[57.1 µM] | -1% | -2% | 4%[57.1 µM] | 8% |
| Cc1ccc(OCCCn2ccnc2)cc1C | 16% | -5% | -1% | 5% | 18µM* |
| NS(=O)(=O)c1ccc(-c2ccc(C=O)o2)cc1 | -20%[57.1 µM] | -1% | / | 9%[57.1 µM] | -6% |
| NS(=O)(=O)c1ccc(-c2ccc(/C=C3\NC(=S)NC3=O)o2)cc1 | 13µM* | 0% | 0% | 3%[57.1 µM] | -21% |
| CC1=C(C#N)C(=O)NC(=O)/C1=C/c1ccc(-c2ccc(S(N)(=O)=O)cc2)o1 | 8.9µM* | 8% | -25% | 3% | -17% |
| CCOC(=O)N1C(COCc2ccccc2)C=CCS1(=O)=O (stereo not drawn) | -18% | / | / | -3% | -1% |
| Cc1cccc(C=Nc2ccc3c(c2)oc2ccccc23)c1O | -8% | -52% | 32µM* | 48% | 3% |
| Cc1ccccc1N=Cc1cccc(O)c1O | 71µM* | 0% | 1% | ? | -8% |
| CC(O)c1cccc(N=Cc2ccc3ccccc3c2O)c1 (stereo not drawn) | 2% | 2% | -1% | -3% | 7% |
| CCN(CC)c1ccc(C=Nc2ccc(C)cc2C)c(O)c1 | 22%[57.1 µM] | -5% | / | -17%[57.1 µM] | -14% |
| Cc1ccc(N=Cc2cccc(O)c2O)c(C)c1 | 32µM* | 1% | 2% | -8% | ? |

From PubChem BioAssay
